Source: patent US4587233A, “Use of Arg-Phe-amide derivatives” (Board of Trustees of the Leland Stanford Junior University, priority 1983, dated 1986)

Test system: Blood Pressure of Anesthetized Rats
Assay: Blood pressure bioassay in urethane-anesthetized rats, peptides injected intravenously
Format: in vivo, male Sprague-Dawley rats
Conditions: anesthetized rat
Experimental: Bioassays were conducted on male Sprague-Dawley rats, weighing 250-450 g, and anesthetized by an intraperitoneal injection of a 25 percent urethane solution (1.25 g/kg). The left femoral artery was cannulated with PE 50 polyethylene tubing for monitoring of blood pressure with a pressure transducer RP-1500 (Narco Biosystems). Injections of peptides or drugs were made via a PE 10 tubing into the left femoral vein. Respiration was measured by an impedance method by which the respiratory movements of the chest are registered. The method gives indirect information on respiration amplitude. Heart and respiration frequency were obtained by using biotachometer couplers which measure mean frequencies. Body temperature was measured in the rectum with a thermistor (Yellow Springs Instruments) and maintained between 36.5° and 37.5° C. Peptides or drugs were dissolved in sterile H2 O and the volumes injected intravenously were usually 0.1 ml and never exceeded 0.2 ml.

SMILES: CSCC[C@H](NC(=O)[C@@H](N)Cc1ccccc1)C(=O)N[C@@H](CCCN=C(N)N)C(=O)N[C@@H](Cc1ccccc1)C(N)=O [FMRF--NH2, Phe-Met-Arg-Phe-NH2]
- Time for which respiration movements of the thorax decreased or stopped (128 nmol/kg i.v.): 1 to 5 s
- Arrhythmia after injection (at higher doses, i.v.): often arrhythmia developed immediately after injection causing a short-lasting drop in heart rate
